This passage reports IC50 results from BindingDB's records for 10206553 (Sankyo, 1999).

Chains of the proteins cited; added tags and fusions are not shown.
UniProt Q64077, whole entry, looked up: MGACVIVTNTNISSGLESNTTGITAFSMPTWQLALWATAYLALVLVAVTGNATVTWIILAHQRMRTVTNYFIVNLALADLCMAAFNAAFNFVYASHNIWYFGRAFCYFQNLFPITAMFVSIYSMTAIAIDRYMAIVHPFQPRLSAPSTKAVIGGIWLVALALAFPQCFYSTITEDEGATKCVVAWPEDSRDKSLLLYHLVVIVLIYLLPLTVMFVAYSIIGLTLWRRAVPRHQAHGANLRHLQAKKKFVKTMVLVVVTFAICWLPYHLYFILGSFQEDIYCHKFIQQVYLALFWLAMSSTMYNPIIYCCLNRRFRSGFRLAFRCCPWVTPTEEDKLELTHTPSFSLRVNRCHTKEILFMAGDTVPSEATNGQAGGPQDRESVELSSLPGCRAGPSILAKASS

The experiment has as its target Substance-K receptor (Cavia porcellus, UniProt Q64077). Kind of experiment: Inhibitory activity against Neurokinin 2 (NK2) receptor from guinea pig ileum.

As to `COc1cc(C(=O)N2CO[C@](CCN3CCC4(CC3)C(=O)NCN4c3ccccc3)(c3ccc(Cl)c(Cl)c3)C2)cc(OC)c1OC`, half-maximal inhibition (IC50) required 160 nM.
